# Antibody variant affinities, Ab-14 light chain, assay B

From the AlphaSeq antibody data of Li et al. 2023 (doi:10.1038/s41467-023-39022-2), copy in the FLAb collection.

The target is the same throughout: PDVDLGDISGINAS, from the HR2 region of SARS-CoV-2 spike.

The variants keep the heavy chain, the linker and the frameworks of Ab-14 (scFv order VH, a 15-residue (Gly4Ser)3 linker, VL).
VH: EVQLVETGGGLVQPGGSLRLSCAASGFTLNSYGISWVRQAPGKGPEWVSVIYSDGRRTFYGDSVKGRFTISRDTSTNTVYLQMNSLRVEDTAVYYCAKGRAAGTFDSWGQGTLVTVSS
VL: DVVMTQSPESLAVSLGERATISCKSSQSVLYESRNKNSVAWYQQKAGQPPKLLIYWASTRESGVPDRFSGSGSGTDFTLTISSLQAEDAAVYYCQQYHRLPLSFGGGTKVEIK

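Phage display of a naive human antibody library on the peptide gave the parent. The variants were designed computationally from a first round of random CDR variants and then made and measured. Group labels follow the data file (Ctrl: baseline library sampled from a position-specific scoring matrix, with some repeated check sequences; En: ensemble of fine-tuned language models; GP: Gaussian process model; HC: hill climbing; Gen: genetic algorithm; Gibbs: Gibbs sampling; a sequence that several methods proposed may carry one label only). AlphaSeq pools MATa yeast showing the antibodies with MATalpha yeast showing the peptide. The frequency of each diploid, read from paired DNA barcodes, reflects how well the two displayed proteins bind. Each replicate has its own calibration line, from reference interactions of the BCL2 family. There are six technical replicates.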

Variants are written as CDR1, CDR2 and CDR3 of the light chain (limits as in the source). Parent: KSSQSVLYESRNKNSVA, WASTRES, QQYHRLPLS.
The Kd shown is the geometric mean over detected replicates; a lower Kd is a better binder.
A pair that was not seen in any replicate is written "no signal"; this usually means weak binding, but a binder can also be missed.
In the paper, a design with two or fewer of six values counts as a poor binder.
Empty control strains, which show no peptide, gave a signal in 4% of pairings with all light chain designs; the median was 430 nM and 95% of these signals were weaker than 38 nM. No background was subtracted.
Of ten entries with the parent sequence, four were seen in most replicates (averages 2.2 nM to 240 nM), three in one and three in none, so single entries are noisy.
The range of this assay differs from that of the first round, and the authors advise against merging the two.

Kd (apparent),seen in,CDR-L1,CDR-L2,CDR-L3,group
160 nM,6 of 6,ILYDSVGTLSRNRNSVA,DNSTRES,QQYDRLPLS,En_HC
2.3 nM,6 of 6,KYQQQVLTEDRNKNSVA,NASTRES,QQYHQLPLS,GP_Gibbs
16 nM,6 of 6,KLGQMTAIESRNLNSVA,QMDTREN,QQYDRLPLS,En_HC
1.4 nM,6 of 6,TIGQSTHETSRNKNSVA,HASTRED,QQYDRLPLS,En_HC
no signal,0 of 6,KSSQSVLYESRNKNSVA,WASTRES,QQSDRLHLS,Ctrl
480 pM,6 of 6,KLSQSALYESRNKNNVA,NASTRES,QQYHRLPLS,GP_Gen
28 nM,5 of 6,KIGGVTNGFSRSKNSVA,EQSTRED,QQYDRLPLS,En_HC
530 pM,6 of 6,KMEGGVLYESRNKGSVA,GASVRES,QQYHRLPLS,GP_HC
12 nM,6 of 6,RMNKFMSGATEAKNSMA,GVEHRAN,QSYHRLPLS,En_Gibbs
780 pM,6 of 6,KLVQMTGIESHAKNSLA,DANRREE,QQYHRLPLS,En_HC
4.9 µM,1 of 6,KSSQSVLYESRNKNSVA,WASWRES,QQYSRLPLS,Ctrl
36 nM,1 of 6,KSSQSVLYTSRNKNSVA,WASTRSS,QQYHRLPLS,Ctrl
16 nM,6 of 6,KVSQSSDYESRNKNSVA,WASHRES,QQYHRLPLS,Ctrl
2.0 nM,6 of 6,KISMLHNQTFEQSNNVA,EMVTRMN,QQYHRLPLS,En_Gen
1.3 nM,6 of 6,MSSQSVLYESRNKNSVA,GASIRES,QQYHRLPLS,Ctrl
810 pM,6 of 6,KLRTSVEYESRNKNSVA,SASTRES,QQYHRLPLS,GP_Gibbs
24 nM,6 of 6,KSSQSVLYESRNKNSVA,FASTRES,QQYHHLPLS,Ctrl
380 pM,6 of 6,KLPQSVLYESRNKNSVA,EASTRCS,QQYHRLPLS,GP_Gen
2.0 nM,6 of 6,KSSQSVLYESLNKNSVA,QASERES,QQYHRLPLS,Ctrl
12 nM,6 of 6,MMSQVTGMGQRHRNNVA,QTSTREP,QQYDRLPLV,En_Gen
2.8 nM,6 of 6,KLQNSMLYESRNDNSVA,DASMRES,QQYHRLPLF,GP_Gibbs
1.2 nM,6 of 6,KSSISELYESVNKNSVA,EASTRES,QQYHRLPLS,GP_HC
2.6 nM,6 of 6,KSSQSGLQESRNKNSVA,SASTRES,QQYHRLPLS,Ctrl
370 nM,6 of 6,FLHGNIEYGNKNWSAIA,ENTIRVD,QYYQHLPLA,En_Gibbs
12 nM,6 of 6,KSSQSVDYNNRNKNSVA,SASTRES,QPYHRLPFS,Ctrl
310 nM,5 of 6,VMFGGLNWGNIEHQAIA,NVDMREK,QQYHRLPLQ,En_Gibbs
360 pM,6 of 6,KLPQSVLYEDRNKNSVA,NASQRES,QQYHRLPLS,GP_Gen
570 pM,6 of 6,KLSQSWLYESRNSNSVA,NASTRMS,QQYHRLPLS,GP_Gen
1.4 nM,6 of 6,KLLQSVLYEGRNKNSVA,HASTRED,QQYHRLPLS,GP_HC
3.8 nM,6 of 6,RLMGLDVTEKNDQSAIA,NAQTHLT,QQYERLPLI,En_Gibbs
1.5 nM,6 of 6,HLSQSVDLESVHKNSIA,DLMTREE,QQYHRLPLS,En_HC
no signal,0 of 6,KSSQSVLYESRNKNSIA,WASMRIS,AQYHRLPLS,Ctrl
11 nM,6 of 6,MISQLYNMGQFAINSVA,QASTRHE,QQYDRLPLI,En_Gen
8.2 nM,6 of 6,RLNVFQYAITGDNYAIA,NARETLM,QQYMRLPLT,En_Gibbs
1.0 nM,6 of 6,KSSQSWLYESRNKNSVA,GASARES,QQYHRLPLS,GP_HC
3.2 nM,6 of 6,KIGHTLNTLYEKANNVA,DLVERED,QQYFRLPLS,En_Gen
3.3 nM,6 of 6,MIEQGENEDEEHYNSIA,EGHERPR,QQYYKLPLV,En_Gibbs
5.3 nM,6 of 6,KISQSVLYESRNKNSVA,AASHRES,QQYHRLPWS,Ctrl
37 nM,4 of 6,KMSQSVLYESRNKNSVA,WASTRES,QQYHRLPTS,Ctrl
no signal,0 of 6,KSSQSVLYESRNKFAVA,WASTRES,QQYHRLPLS,Ctrl
5.2 nM,6 of 6,KLLQSVNYGSRALNSVA,QMETRED,QQYHRLPLS,En_HC
530 pM,6 of 6,KMSQSVLMEWRNKNSVA,DASTRES,QQYHRLPLS,GP_HC
1.7 nM,6 of 6,KVQQSVPYESRNKNSVA,SASTRES,QQYHRLPLS,GP_Gen
2.0 nM,6 of 6,KLEDSNLYESRNGNSVA,NASTRES,QQYHRLPLS,GP_Gibbs
910 pM,6 of 6,KSQQSWLYESRNFNSVA,NASTRED,QQYHRLPLS,GP_HC
3.3 nM,6 of 6,KLMQSHLYESRNKNSVA,NASQRES,QQYHRLPLS,GP_Gen
160 nM,3 of 6,KLSQSVRMESFNTNSVA,ENSTREA,QDYHRLPLS,En_HC

Excerpt, the first 5 entries:

CDR-L1,CDR-L2,CDR-L3,group,Kd (apparent),seen in
ILYDSVGTLSRNRNSVA,DNSTRES,QQYDRLPLS,En_HC,160 nM,6 of 6
KYQQQVLTEDRNKNSVA,NASTRES,QQYHQLPLS,GP_Gibbs,2.3 nM,6 of 6
KLGQMTAIESRNLNSVA,QMDTREN,QQYDRLPLS,En_HC,16 nM,6 of 6
TIGQSTHETSRNKNSVA,HASTRED,QQYDRLPLS,En_HC,1.4 nM,6 of 6
KSSQSVLYESRNKNSVA,WASTRES,QQSDRLHLS,Ctrl,no signal,0 of 6